According to paper PMC13289030, “Qualification of the human Reconstructed Intestine Micronuclei Cytome assay for site-of-contact genotoxic hazard identification” (NAM journal, 2025):

How the values were obtained:
[1] = cited from earlier work
[2] = Test material solubility limit for top test concentration; assay type: physicochemical
[3] = system: EpiIntestinal™ microtissues
[4] = system: EpiIntestinal™ microtissues; remark: listed apart in the source

Substance | In vivo genotoxicity tests [1] | Concentration above which test material is insoluble (top test concentration) [2] [µg/mL] | %MN induction (result in words) [3] | Karyorrhectic cells (cytome analysis) [3] | Loss/reduction in cell viability [4] [%]
Glycidamide | + MN & DNA adduct |  |  |  | 
Astaxanthin esters | - | 125 | did not induce significant increase in %MN | non-significant increase in karyorrhectic cell population | ~20
